Rango dissoc inh – qHTS Assay for Inhibitors of RanGTP induced Rango (Ran-regulated importin-beta cargo) - Importin beta complex dissociation | Biochemical FRET Rango-importin beta, RanGTP-induced dissociation | AID 540253, 2011 | Potency, µM (titrated, usually from 46.1 µM), for the others: at the highest dose activity change, negative = inhibition | Snurportin-1 (Homo sapiens) + GTP-binding nuclear protein Ran (Homo sapiens) + Importin … | 340,000 tested, 0.071% active; note: potency is the fitted concentration of half-maximal effect; % of control where 0% means no effect; nearly all actives have a fitted effect of over 45% in size
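Recombinant Rango FRET biosensor (EYFP–snurportin 1 IBB–cerulean CFP10) at 0.1 uM premixed with 0.25 uM importin beta in PBS, 1 mM DTT, 0.02% Tween-20, 0.1% BSA. Compound added 5 min; RanGTP-RCC1 (0.6 uM Ran, 2 mM GTP, 0.2 uM RCC1) then triggers release, read at 45 min.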
p53 reactivator – qHTS assay for re-activators of p53 using a Luc reporter. AID 504706, 2011. 320,000 tested, 0.063% active. H1299 p53-A138V BP100-luciferase reporter, luminescence, 24 h. Potency, µM (doses to about 92.2 µM), for inactives: at the highest dose activity change, positive = activation, hits mostly activators; active = well fitted activation curve with a large enough effect; inconclusive = small, poorly fitted or top-dose-only effect; inactive = no such curve, though single readings can be large or run the other way; note: potency is the fitted concentration of half-maximal effect; % of control where 0% means no effect; nearly all actives have a fitted effect of over 45% in size
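p53-null H1299 cells stably carrying temperature-sensitive p53-A138V and a BP100-luciferase reporter were pinned with compounds (4-point, 1:5 series) and held 24 hrs at 37 deg C. Luminescence was read 10 min after detection reagent.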
Akt phos inh – HTS Assay for Inhibitors of Akt Phophorylation: Primary Screen; Neuro2A IGF-stimulated pAkt S473 HTRF, 20 min; hits give low values; activity change, % for hits at 50 µM; 360,000 tested, 0.32% active; AID 651550, 2012; in the data active = activity change below about -80%; inconclusive = mostly about -51% to -80%; note: % is set by controls: 0 for no effect and ±100 for the full control effect
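Neuro2A cells in DMEM with 0.5% FBS, overnight at 37 deg C, given compound at single 50 µM final, then IGF (6 nM final) for 20 min at 37 deg C. Lysed; phospho-Akt Ser473 by HTRF after 24 h, 665/615 ratio.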
Rango complex inh – qHTS Assay for Inhibitors of Rango (Ran-regulated importin-beta cargo) - Importin beta complex formation. AID 540263, 2011. Rango CFP/YFP FRET sensor + importin beta, 45 min. 340,000 tested, 0.031% active. Potency, µM (highest dose often 92.2 µM), inactives show top-dose inhibition of complex formation;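 note: potency is the fitted concentration of half-maximal effect; 0% = DMSO wells and 100% = buffer wells lacking importin beta; nearly all actives have a fitted effect of over 15% in size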
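Inhibition scored from the CFP 486 nm/YFP 530 nm FRET ratio 45 min after adding 0.125 microM importin beta to 50 nM Rango biosensor preincubated 5 min with compound (room temperature, PBS with DTT, Tween-20, BSA). No-importin wells as positive control.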
TSHR antag – Antagonists of the Thyroid Stimulating Hormone Receptor: HTS campaign | Thyrotropin receptor (Homo sapiens), P16473 | TSHR-expressing cells, TSH-stimulated cAMP HTRF, 2 h; hits give low values | activity change, negative = inhibition, % at 11.5 µM | 330,000 tested, 0.2% active | AID 504810, 2011;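 active = activity change below a set negative limit, meaning inhibition stronger than a set level, cut at about -70% in these data; inconclusive = activity change between two set negative limits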; note: % is set by controls: 0 for no effect and ±100 for the full control effect
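TSHR-expressing cells were treated with compounds, then stimulated with TSH at EC80 (4nM final) for 2 hours at 37 deg C. Cellular cAMP was measured by HTRF competition between lysate cAMP and cAMP-d2 for a cryptate-labelled anti-cAMP antibody.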
* marks the source's active call; other numbers are inactive results; i = inactive; ? = inconclusive; · = no result. This is a sample that favours compounds with a hit; in the whole collection about 0.62% have one here. Unless noted, calls come from the whole dose curve.

Amino acid sequences for entries named in this document (tags omitted).
Thyrotropin receptor (Homo sapiens), P16473, UniProt P16473, whole entry, looked up: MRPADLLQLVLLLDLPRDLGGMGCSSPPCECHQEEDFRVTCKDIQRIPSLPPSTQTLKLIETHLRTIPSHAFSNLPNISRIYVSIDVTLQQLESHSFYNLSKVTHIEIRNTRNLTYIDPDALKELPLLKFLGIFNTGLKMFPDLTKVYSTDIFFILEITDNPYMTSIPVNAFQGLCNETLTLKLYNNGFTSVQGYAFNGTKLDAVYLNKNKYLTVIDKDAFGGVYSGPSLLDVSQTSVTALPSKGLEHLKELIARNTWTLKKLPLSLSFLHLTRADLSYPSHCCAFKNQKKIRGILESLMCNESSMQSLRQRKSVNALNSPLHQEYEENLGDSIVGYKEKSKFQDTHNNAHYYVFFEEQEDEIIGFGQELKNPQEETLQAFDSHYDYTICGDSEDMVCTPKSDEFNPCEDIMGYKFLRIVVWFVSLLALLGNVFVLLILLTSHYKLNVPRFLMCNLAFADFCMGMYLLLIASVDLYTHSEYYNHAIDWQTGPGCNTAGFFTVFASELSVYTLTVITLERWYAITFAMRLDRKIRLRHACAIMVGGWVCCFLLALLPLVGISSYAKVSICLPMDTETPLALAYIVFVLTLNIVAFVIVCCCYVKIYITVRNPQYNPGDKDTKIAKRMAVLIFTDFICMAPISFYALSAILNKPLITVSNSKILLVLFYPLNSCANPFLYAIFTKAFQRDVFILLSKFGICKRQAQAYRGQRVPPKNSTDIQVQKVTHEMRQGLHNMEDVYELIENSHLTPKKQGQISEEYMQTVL

Short forms – A = Rango dissoc inh; B = p53 reactivator; C = Akt phos inh; D = Rango complex inh; E = TSHR antag
Structure: COc1ccc(NC(=O)CN(C)S(=O)(=O)c2cnc[nH]2)cc1OC
  A = ? | B = -0.3% | C = i | D = 1.7% | E = -9.1
Structure: Cc1cc(C)cc(NC(=O)CN(C)S(=O)(=O)c2cnc[nH]2)c1
  A = 23.4% | B = -3.9% | C = -116.1%* | D = -1.3% | E = -4.2
Structure: CCC(=O)N1CCC(C)(C(=O)Nc2ccc(OC)c(OC)c2)C1 (configuration not stated)
  A = · | B = · | C = i | D = · | E = ·
Structure: Cc1ccc(CCNC(=O)CN2C(=O)COc3ccc(S(=O)(=O)N4CCC(C)CC4)cc32)cc1
  A = -9.6% | B = -2.4% | C = i | D = -5.5% | E = -136.4*
Structure: CCN(CC)S(=O)(=O)c1ccc2c(c1)N(CC(=O)NCCCN1CC(C)CC(C)C1)C(=O)CO2 (configuration not stated)
  A = 11.5% | B = -3.4% | C = i | D = -0.1% | E = 2.1
Structure: CC1CC(C)CN(CCCNC(=O)CN2C(=O)COc3ccc(S(=O)(=O)N4CCOCC4)cc32)C1 (configuration not stated)
  A = 13.3% | B = -0.1% | C = i | D = -0.3% | E = -104.3*
Structure: O=C(O)c1cc2nc3c(c(C(F)(F)F)n2n1)CCc1ccccc1-3
  A = -19.0% | B = · | C = -113.8%* | D = -2.4% | E = -3.4
Structure: CCC1(c2ccc(F)cc2)NC(=O)N(CC(=O)Nc2cc(S(=O)(=O)N(C)C)ccc2Cl)C1=O (configuration not stated)
  A = 14.6% | B = -3.3% | C = i | D = -6.4% | E = -3.8
Structure: CCCCNC(=O)c1ccc(CNc2c(N3CCC(C(=O)OCC)CC3)c(=O)c2=O)cc1
  A = -0.4% | B = 10.3% | C = i | D = -0.2% | E = -8.2
Structure: C#CCOCCOCCOCCNc1nc(N2CCN(C(=O)CCCCCCCCCCNC(=O)[C@H](CCCCN)n3cc(CCO)nn3)CC2)nc(N2CCN(C(=O)CCCCCCCCCCNC(=O)[C@H](CCCN=C(N)N)n3cc(C[C@@H](C)CC)nn3)CC2)n1
  A = ? | B = -6.4% | C = i | D = 65.1µM* | E = -16.0
Structure: C#CCOCCOCCOCCNc1nc(N2CCN(C(=O)[C@H](CCCN=C(N)N)n3cc(C(N)[C@H](C)CC)nn3)CC2)nc(N2CCN(C(=O)[C@H](CCCN=C(N)N)n3cc(C(N)[C@@H](C)CC)nn3)CC2)n1 (some centres not stated)
  A = ? | B = -3.2% | C = i | D = 65.1µM* | E = 3.5
Structure: C#CCOCCOCCOCCNc1nc(N2CCN(C(=O)[C@H](CCCCN)n3cc([C@@H](N)C(C)CC)nn3)CC2)nc(N2CCN(C(=O)[C@H](CCCCN)n3cc([C@@H](N)CC(C)C)nn3)CC2)n1 (some centres not stated)
  A = 1.6% | B = 4.2% | C = i | D = 51.7µM* | E = -3.4
Structure: C#CCOCCOCCOCCNc1nc(N2CCOCC2)nc(N2CCN(C(=O)[C@H](CCCN=C(N)N)n3cc(C(N)[C@@H](C)CC)nn3)CC2)n1 (some centres not stated)
  A = -8.9% | B = 0.9% | C = i | D = 6.8% | E = 3.9
Structure: COc1cc(C2=NC(CO)(CO)CO2)cc(OC)c1OC
  A = 14.5% | B = 2.3% | C = i | D = -1.8% | E = 6.3
Structure: Cc1onc(-c2ccccc2)c1NC(=O)N(CCC(=O)O)Cc1ccccc1
  A = -4.7% | B = -3.6% | C = i | D = 4.7% | E = 1.4
Structure: Cc1onc(-c2ccccc2)c1NC(=O)N(Cc1ccccc1)C(C)C
  A = 28.6% | B = -0.2% | C = i | D = -3.6% | E = -117.3*
Structure: CCn1c(=S)sc2c(=O)n(CC(=O)Nc3ccccc3C(F)(F)F)c(C)nc21
  A = 13.6% | B = 12.5% | C = · | D = 4.9% | E = -127.2*
Structure: CCn1c(=S)sc2c(=O)n(CC(=O)Nc3ccccc3)c(C)nc21
  A = -4.5% | B = -6.3% | C = i | D = 1.9% | E = -14.1
Structure: Cc1ccc(NC(=O)CSc2nnc(CSc3nc(C)cc(C)n3)n2Cc2ccco2)c(C)c1
  A = -3.6% | B = -7.2% | C = i | D = -4.6% | E = 4.2
Structure: COc1cccc(-c2nnc(SCC(=O)Nc3cc(C)ccc3OC)n2N)c1
  A = -3.1% | B = -6.0% | C = -118.9%* | D = -0.1% | E = -2.6

Looked up above.
Rango dissoc inh, Cc1cc(C)cc(NC(=O)CN(C)S(=O)(=O)c2cnc[nH]2)c1 is entered as 23.4%
TSHR antag, CC1CC(C)CN(CCCNC(=O)CN2C(=O)COc3ccc(S(=O)(=O)N4CCOCC4)cc32)C1 (configuration not stated) is entered as -104.3*

Single records, as listed above. Values in the order: Rango dissoc inh	p53 reactivator	Akt phos inh	Rango complex inh	TSHR antag
C#CCOCCOCCOCCNc1nc(N2CCN(C(=O)CCCCCCCCCCNC(=O)[C@H](CCCCN)n3cc(CCO)nn3)CC2)nc(N2CCN(C(=O)CCCCCCCCCCNC(=O)[C@H](CCCN=C(N)N)n3cc(C[C@@H](C)CC)nn3)CC2)n1 across the screens: ?	-6.4%	i	65.1µM*	-16.0
CCn1c(=S)sc2c(=O)n(CC(=O)Nc3ccccc3C(F)(F)F)c(C)nc21 across the screens: 13.6%	12.5%	·	4.9%	-127.2*
